Several values for one entry are separate records, joined by “and”; a condition that tells them apart may be missing. Identical values can stand only once.
How the values were obtained:
PLCγ2-cSH2 = PLCγ2-cSH2 (Homo sapiens, UniProt P16885); test: Fluorescence quenching vesicle binding assay, PLCγ2-cSH2; conditions: Table 2; PLCγ2-cSH2 binding to POPC/POPS/PIP3/dabsyl-PE vesicles
Description: (§1) The membrane-binding assay is based on fluorescence quenching of EGFP fused to a SH2 domain by a dark quencher containing lipid, dabsyl-PE, incorporated in lipid vesicles. The plate reader assay was performed using the Synergy™ Neo spectrofluorometer at 25° C. Nontreated black polystyrene 96-well plates (Corning) were used. Protein (10-50 nM) with the increasing concentration of vesicles with a given lipid composition in 20 mM Tris buffer, pH 7.4, containing 0.16 M NaCl was added to each row of wells and the EGFP fluorescence emission at 516 nm was measured with excitation set at 485 nm. Z′ factor for the assay system was determined as described^74. Imax and IC50 values of inhibitors were determined using the equation, I=Imax/(1+IC50/[I]) where I and [I] indicate % inhibition and inhibitor concentration, respectively. […]
(§2) We also optimized a recently developed fluorescence quenching-based lipid-binding assay^47 for high-throughput screening of these molecules for their inhibitory activity against the PIP3-SH2 interaction. Specifically, we expressed SH2 domains as EGFP-tagged proteins and directly quantified their membrane binding by monitoring the quenching of EGFP fluorescence emission intensity by a dark quencher-containing lipid, N-dimethylaminoazo-benzenesulfonyl-phosphatidylethanolamine (dabsyl-PE), incorporated in the vesicles. […]

By UniProt entry, the sequences of proteins in these tests, tags left out. Residues count along the entry.
UniProt P16885, 646-735 limits assumed: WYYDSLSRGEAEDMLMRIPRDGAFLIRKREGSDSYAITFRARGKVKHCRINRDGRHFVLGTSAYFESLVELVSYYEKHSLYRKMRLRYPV
UniProt Q8WV28, 346-453 limits assumed: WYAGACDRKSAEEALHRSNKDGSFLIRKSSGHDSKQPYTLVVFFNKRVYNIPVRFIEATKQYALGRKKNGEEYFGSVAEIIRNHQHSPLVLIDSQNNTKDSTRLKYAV

BLNK-SH2 = BLNK-SH2 (Homo sapiens, UniProt Q8WV28); test: Fluorescence quenching vesicle binding assay, BLNK-SH2; conditions: Table 2; BLNK-SH2 binding to POPC/POPS/PIP3/dabsyl-PE vesicles
Description: as §1, §2

Syk-cSH2 = Syk-cSH2 (Homo sapiens, UniProt P43405); test: Fluorescence quenching vesicle binding assay, Syk-cSH2
Description: The membrane-binding assay is based on fluorescence quenching of EGFP fused to a SH2 domain by a dark quencher containing lipid, dabsyl-PE, incorporated in lipid vesicles. The plate reader assay was performed using the Synergy™ Neo spectrofluorometer at 25° C. Nontreated black polystyrene 96-well plates (Corning) were used. Protein (10-50 nM) with the increasing concentration of vesicles with a given lipid composition in 20 mM Tris buffer, pH 7.4, containing 0.16 M NaCl was added to each row of wells and the EGFP fluorescence emission at 516 nm was measured with excitation set at 485 nm. Z′ factor for the assay system was determined as described^74. Imax and IC50 values of inhibitors were determined using the equation, I=Imax/(1+IC50/[I]) where I and [I] indicate % inhibition and inhibitor concentration, respectively. The average and standard deviation values were obtained from triplicate determinations.
We also optimized a recently developed fluorescence quenching-based lipid-binding assay^47 for high-throughput screening of these molecules for their inhibitory activity against the PIP3-SH2 interaction. Specifically, we expressed SH2 domains as EGFP-tagged proteins and directly quantified their membrane binding by monitoring the quenching of EGFP fluorescence emission intensity by a dark quencher-containing lipid, N-dimethylaminoazo-benzenesulfonyl-phosphatidylethanolamine (dabsyl-PE), incorporated in the vesicles. We then screened for compounds that inhibited binding of Syk-cSH2, BLNK-SH2, and PLCγ2-cSH2, respectively, to 1-palmitoyl-2-oleoyl-PC (POPC)/1-palmitoyl-2-oleoyl-PS (POPS)/PIP3/dabsyl-PE (67:20:3:10) vesicles while eliminating those that inhibit their non-specific binding to anionic POPC/POPS/dabsyl-PE (70:20:10) vesicles. The quality of the screening system was evaluated using 1% dimethylsulfoxide (DMSO) and 20 μM D-myo-inositol-1,3,4,5-tetraphosphate (IP4) as negative and positive controls, respectively. The clear separation of positive and negative control data and the average Z′-factor of 0.7 supported the robustness of our system for high-throughput screen of PIP3-SH2 interaction inhibitors.

[1] = system: BCR signaling axis (Syk-BLNK-PLCγ2); test: Western blot of BCR signaling axis in Raji B lymphocytes; conditions: Raji B cells
Description: Cells were seeded at a density of 3.0×10^5 cells/well prior to incubation with inhibitors. Cells were incubated with 1-5 μM of Syk inhibitors overnight and stimulated with different antibodies: IgG2 for AML cells, IgM for Raji B cells, and OKT3 (Biolegend) for Jurkat cells. The cells were lysed in NP40 lysis buffer (50 mM Tris, pH 7.5, 150 mM NaCl, 1 mM EDTA, 1% NP40, 10% glycerol, 10 mM NaF, 10 mM Na3VO4, and the protease inhibitor cocktail) at 4° C. and the cell debris was removed by centrifugation. Samples were analyzed by SDS-PAGE. Proteins were separated and transferred to Immobilon-P polyvinylidene difluoride membrane (Millipore Sigma). The membrane was blocked with 5% bovine serum albumin for 1 h and incubated overnight at 4° C. with various antibodies (1:1000 dilution for all antibodies). After the unbound antibodies were removed by washing with 0.1% Tris buffer saline with 0.1% Tween20, the membranes were incubated with the horseradish peroxidase secondary antibody (1:5000 dilution) for 1 h at room temperature. The membranes were washed three more times with 0.1% Tris buffer saline with 0.1% Tween20 to remove the unbound horseradish peroxidase secondary antibody before imaging. The chemiluminescence intensity of protein bands in the gel was analyzed and documented by the Azure 500Q Imaging System.

[2] = Table 2, Syk-cSH2 binding to POPC/POPS/PIP3/dabsyl-PE vesicles
[3] = Table 3, efficacy determined by the vesicle binding assay

With Cc1ccc(C(Nc2ncccn2)C(=[N+]=[N-])C(=O)OC2CCCCC2)cc1 (stereo not shown) the “Imax (%)” value (PLCγ2-cSH2) was under 10%, the “Imax (%)” value (BLNK-SH2) was under 10% and the IC50 (Syk-cSH2; [2]) was 500 nM and 350 nM. For the same molecule, the “Imax (%)” value (Syk-cSH2; [2]) was 40-50% and 40 ± 5%, the IC50 (Syk-cSH2; [3]) was 500 nM and the “Imax (%)” value (Syk-cSH2; [3]) was “Imax (%) = 40”. The “effect on phosphorylation of BCR signaling proteins (Syk, BLNK, PLCγ2)” value [1] was “suppressed phosphorylation of Syk (pY525/pY526), BLNK (pY96) and PLCγ2 (pY759)”.

Reference: patent publication US20250346582A1, “SPLEEN TYROSINE KINASE INHIBITORS AND METHODS OF USE THEREOF” (THE BOARD OF TRUSTEES OF THE UNIVERSITY OF ILLINOIS, priority 2022, published 2025)
